What was measured:
Conditions in all cases: 60 minute SAM:Enzyme:Compound A preincubation
PRMT8 = PRMT8 (Homo sapiens, UniProt Q9NR22)
PRMT6 = PRMT6 (Homo sapiens, UniProt Q96LA8)
PRMT4 = PRMT4 (Homo sapiens, UniProt Q86X55)
PRMT3 = PRMT3 (Homo sapiens, UniProt O60678)

Protein sequences, listed by entry. Tags and fused reporters are not part of them. Lines headed by an entry give the natural chain unless they say otherwise; changes in a name come on top.
UniProt Q9NR22, whole entry: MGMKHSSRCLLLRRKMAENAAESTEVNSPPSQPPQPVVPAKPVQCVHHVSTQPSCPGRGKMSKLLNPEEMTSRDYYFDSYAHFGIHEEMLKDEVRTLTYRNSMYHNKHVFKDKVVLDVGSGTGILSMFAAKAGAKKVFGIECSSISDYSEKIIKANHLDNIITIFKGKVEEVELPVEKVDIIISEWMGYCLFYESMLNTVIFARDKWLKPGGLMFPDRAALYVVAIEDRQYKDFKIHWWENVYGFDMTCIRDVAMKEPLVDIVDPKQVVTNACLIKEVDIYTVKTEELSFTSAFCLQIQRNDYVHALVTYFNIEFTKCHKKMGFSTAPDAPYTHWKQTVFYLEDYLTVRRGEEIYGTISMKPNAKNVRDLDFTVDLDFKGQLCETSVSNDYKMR
UniProt Q96LA8, whole entry: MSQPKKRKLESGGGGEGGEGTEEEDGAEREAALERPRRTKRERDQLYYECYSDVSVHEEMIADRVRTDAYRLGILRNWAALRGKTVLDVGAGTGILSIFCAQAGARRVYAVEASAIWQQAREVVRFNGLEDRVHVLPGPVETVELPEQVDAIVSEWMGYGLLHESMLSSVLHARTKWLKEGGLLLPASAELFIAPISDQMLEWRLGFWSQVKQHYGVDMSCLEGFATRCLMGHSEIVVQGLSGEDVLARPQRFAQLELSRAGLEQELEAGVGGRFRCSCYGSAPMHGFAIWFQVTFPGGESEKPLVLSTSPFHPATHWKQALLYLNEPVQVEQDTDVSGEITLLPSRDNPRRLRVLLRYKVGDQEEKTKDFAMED
UniProt Q86X55: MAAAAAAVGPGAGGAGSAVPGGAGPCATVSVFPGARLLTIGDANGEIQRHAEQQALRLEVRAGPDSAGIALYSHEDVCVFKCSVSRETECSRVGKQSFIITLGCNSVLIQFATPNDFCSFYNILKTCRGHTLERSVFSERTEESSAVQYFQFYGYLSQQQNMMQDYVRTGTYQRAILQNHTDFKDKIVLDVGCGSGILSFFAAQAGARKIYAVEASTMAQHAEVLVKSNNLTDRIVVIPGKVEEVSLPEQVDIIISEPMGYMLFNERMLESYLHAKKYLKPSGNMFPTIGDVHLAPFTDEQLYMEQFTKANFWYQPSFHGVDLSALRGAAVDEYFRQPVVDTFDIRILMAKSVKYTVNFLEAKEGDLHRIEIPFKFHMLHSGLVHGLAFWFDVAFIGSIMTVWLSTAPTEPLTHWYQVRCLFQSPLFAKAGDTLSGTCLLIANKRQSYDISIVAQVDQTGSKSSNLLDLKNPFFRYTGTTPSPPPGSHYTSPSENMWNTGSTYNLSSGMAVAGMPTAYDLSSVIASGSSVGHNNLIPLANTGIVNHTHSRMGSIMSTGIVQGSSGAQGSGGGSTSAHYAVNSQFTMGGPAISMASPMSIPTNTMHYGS
UniProt O60678: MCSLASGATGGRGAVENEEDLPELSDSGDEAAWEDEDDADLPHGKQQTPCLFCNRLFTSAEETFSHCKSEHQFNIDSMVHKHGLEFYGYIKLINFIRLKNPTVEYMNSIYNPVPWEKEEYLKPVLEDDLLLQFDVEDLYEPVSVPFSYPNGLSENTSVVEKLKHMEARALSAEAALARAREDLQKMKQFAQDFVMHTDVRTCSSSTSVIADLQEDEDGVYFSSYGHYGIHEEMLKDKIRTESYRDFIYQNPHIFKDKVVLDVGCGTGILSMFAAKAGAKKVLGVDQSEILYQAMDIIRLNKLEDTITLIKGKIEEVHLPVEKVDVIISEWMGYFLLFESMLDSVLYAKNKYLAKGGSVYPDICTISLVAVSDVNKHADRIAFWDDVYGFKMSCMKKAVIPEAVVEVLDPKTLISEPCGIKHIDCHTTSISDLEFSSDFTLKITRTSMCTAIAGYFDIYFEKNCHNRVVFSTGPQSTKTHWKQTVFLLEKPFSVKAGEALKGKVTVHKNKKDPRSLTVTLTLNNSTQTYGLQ

Measured: inhibition of activity

CCOCC1(COCC)CCC(c2n[nH]cc2CN(C)CCNC)CC1 [Compound A]
inhibited: all assays above

— patent US20210260033A1, “COMBINED THERAPY WITH ICOS BINDING PROTEINS AND […] INHIBITORS” (GLAXOSMITHKLINE INTELLECTUAL PROPERTY DEVELOPMENT LIMITED, priority 2018, published 2021)
